Here are results for 2 compounds from patent US20060128757A1, “Pyridine derivatives useful as cyclooxygenase inhibitor” (Astellas Pharma Inc., priority 2001, published 2006).

By UniProt entry, the sequences of proteins in these tests, tags left out. Residues count along the entry.
UniProt P23219, 24-599: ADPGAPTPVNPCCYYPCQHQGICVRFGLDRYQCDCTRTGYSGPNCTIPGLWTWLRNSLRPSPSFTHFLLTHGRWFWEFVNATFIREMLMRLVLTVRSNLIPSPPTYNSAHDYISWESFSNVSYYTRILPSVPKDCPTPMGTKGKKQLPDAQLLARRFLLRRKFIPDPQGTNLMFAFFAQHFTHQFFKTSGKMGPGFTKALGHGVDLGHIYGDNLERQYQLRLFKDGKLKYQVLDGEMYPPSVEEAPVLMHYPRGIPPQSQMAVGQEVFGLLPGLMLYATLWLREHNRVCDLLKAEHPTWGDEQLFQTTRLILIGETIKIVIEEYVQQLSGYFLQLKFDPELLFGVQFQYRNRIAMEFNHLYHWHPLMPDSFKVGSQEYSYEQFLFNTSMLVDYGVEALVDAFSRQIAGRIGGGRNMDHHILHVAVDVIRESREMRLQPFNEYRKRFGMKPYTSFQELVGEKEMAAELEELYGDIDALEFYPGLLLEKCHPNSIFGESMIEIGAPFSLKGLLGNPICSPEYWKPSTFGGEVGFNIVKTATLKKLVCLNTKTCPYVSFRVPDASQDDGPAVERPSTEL

Each structure is given as a SMILES string.

For orientation: IC50 means the concentration at which inhibition is half-maximal. The low end stands for inhibition by little substance, the high end for a need for much substance.

The assay has as its target COX-I (Homo sapiens, UniProt P23219). The experiment in a line: Whole blood assay for COX-I (TXB2 production).

In turn, `COc1ccc(-c2cc(C#N)cnc2-c2ccc(OC)cc2)cc1` [Example 4, 5-(4-methoxyphenyl)-6-(4-methoxyphenyl)-pyridine-3-carbonitrile] returned a Selectivity of 112.

`COc1ccc(-c2noc(CC(=O)O)c2-c2ccc(OC)cc2)cc1` [H, Mofezolac, reference compound] had an IC50 (Whole blood assay (IC50: μM) COX-I, Table 1, human whole blood, TXB2 production) of 0.42 µM.
